This assay has as its target T1, SPOP^MATH (SPOP MATH domain) (Homo sapiens, UniProt O43791).
T1 construct: bacterially expressed SPOP protein (SPOP^MATH); hexahistidine-MBP (with HRV 3C site) (N, cleaved yes); made in house; host or cells: E. coli BL21 (DE3); tracer peptide synthesized by Peptide Synthetics
Briefly: FP competition assay: unlabelled peptide versus Puc-5Flu peptide on SPOP^MATH. The class given is binding. How it is done:
Peptides and SPOP^MATH protein were diluted in FP buffer (50 mM HEPES pH 7.5, 100 mM NaCl, 1 mM TCEP, 0.005% Tween-20). Measurements were made in 384-well black flat-bottom low-flange plates (Corning) using 20 μl reaction volumes. Plates were equilibrated at room temperature for 30 minutes before reading. Millipolarization (mP) measurements were taken in a Hidex Sense microplate reader (Hidex) at 25°C, with excitation at 490 nm (20 nm filter), emission at 520 nm (14 nm filter), and a G-factor of 1.
The technical duplicate mP values were averaged, and error bars represent standard deviation. Data were plotted and analyzed using Prism 9 software. […] IC50 values from three independent experiments were averaged and the standard deviation was calculated.

By UniProt entry, the sequences of proteins in these tests, tags left out. Residues count along the entry.
UniProt O43791, 28-166: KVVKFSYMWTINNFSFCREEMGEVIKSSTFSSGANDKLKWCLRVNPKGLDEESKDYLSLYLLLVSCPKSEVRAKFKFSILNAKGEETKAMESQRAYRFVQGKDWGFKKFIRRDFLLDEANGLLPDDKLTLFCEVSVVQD

In the case of `CSCC[C@H](NC(=O)[C@H](CC(N)=O)NC(=O)[C@@H](N)CC(N)=O)C(=O)N1CCC[C@H]1C(=O)N[C@H](C(=O)N[C@@H](CCC(N)=O)C(=O)N[C@@H](Cc1c[nH]c2ccccc12)C(=O)N[C@@H](CC(N)=O)C(=O)N[C@@H](CCC(=O)O)C(=O)N[C@H](C(=O)N[C@@H](CO)C(=O)N[C@@H](CO)C(=O)NCC(=O)N[C@H](C(=O)N[C@H](C(=O)N[C@@H](CC(=O)O)C(=O)N[C@@H](C)C(=O)O)C(C)C)[C@@H](C)O)C(C)C)C(C)C`, the IC50 (in general, the concentration that inhibits the measured activity by half) turned out to be 5.3 ± 1.2 µM.

The record behind these values is article PMC7618200 (The Biochemical journal, 2025).
